# Compound activity as filed in PubChem.
# Compounds with a hit are over-represented: about 2.3% of the library has one in this group of screens.
# miR-21 reporter: raises the signal of a miR-21 reporter. HeLa miR-21 FLuc reporter, luciferase, 48 h. 340,000 tested, under 10 active. Potency, µM (highest dose often 38.3 µM), for the others: at the highest dose reporter change, positive = more light; active = well fitted rising curve with a large enough effect; inconclusive = small, poorly fitted or top-dose-only effect; inactive = no such curve, though single readings can be large or run the other way;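 note: % of control where 0% means no effect; miR-21 action dims this reporter so a rising signal means less miR-21 action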
#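 Compounds were titrated across several concentrations (up to approximately 40 uM) and incubated 48 hours with HeLa miR-21-FLuc reporter cells (miR-21 target sequence downstream of FLuc, endogenous miR-21). Readout was firefly luciferase luminescence after lytic detection reagent.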
# Nrf2 activator: activates Nrf2 signaling. AREc32 ARE-luciferase reporter (MCF7-derived line), luminescence, 24 h. Potency, µM (top dose mostly 46.1 µM), for inactives: top-dose activation, actives largely listed as activators. 410,000 compounds, 0.31% hits; note: potency is the fitted concentration of half-maximal effect; % of control where 0% means no effect; nearly all actives have a fitted effect of over 65% in size
#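 Luciferase luminescence (Steady-Glo, 30 min at room temperature) served as the read-out of ARE activation in AREc32 cells treated with compounds for 24 hr at 37 deg C.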
# Mito fusion act: blocks mitochondrial division or promotes mitochondrial fusion | S. cerevisiae fusion-defective mutant growth rescue, CellTiterGlo 48 h | Potency, µM (series often up to 46.1 µM), for inactives: top-dose growth rescue (activation), actives largely listed as activators | 320,000 compounds, 0.23% hits | AID 485298; note: potency is the fitted concentration of half-maximal effect; % of control where 0% means no effect; nearly all actives have a fitted effect of over 45% in size
#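 Growth-rescue viability read-out: after 48 h at the non-permissive 37C in glycerol/ethanol YPEG, yeast mitochondrial fusion mutants are measured by CellTiterGlo luminescence; compounds (23 nl pinned per well) restoring growth score as division inhibitors or fusion activators.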
# Nrf2 block: Nrf2 pathway inhibition. A549 ARE-Fluc reporter, luciferase luminescence, 18-24 h. Potency, µM (series often up to 46 µM), for inactives: at the top dose activity change, negative = inhibition, hits mostly inhibitors. 360,000 compounds, 2.1% hits. AID 504444; note: potency is the fitted concentration of half-maximal effect; % is set by controls: 0 for no effect and ±100 for the full control effect; nearly all actives have a fitted effect of over 60% in size
#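 In this cell-based qHTS, ARE-driven firefly luciferase in A549 cells reports Nrf2 activity; the luminescent signal after BugLite lysis is the measured value, with a prior CellTiter-Fluor read for cell health.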
# A549 tox: kills or reduces viability of A549 cells in Nrf2 counter-screen | Potency, µM (highest dose often 46 µM), inactives show top-dose activity change, negative = cytotoxicity, actives largely listed as inhibitors | 390,000 compounds, 0.16% hits | A549 ARE-Fluc cells, CellTiter-Fluor viability, 18-24 h | AID 504648; note: potency is the fitted concentration of half-maximal effect; % is set by controls: 0 for no effect and ±100 for the full control effect
#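 Cytotoxicity counterscreen: CellTiter-Fluor fluorescence was measured in A549 ARE_Fluc cells after 18-24 h of compound exposure in a concentration series. The subsequent BugLite luminescent read reports ARE-luciferase activity.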
# Active calls of the source: *; ? = inconclusive; / = not tested or not shown; [ ] = remark or other dose. Unless noted, calls come from the whole dose curve; as a rule, active = well fitted curve in the direction sought with a large enough effect; inconclusive = small, poorly fitted or top-dose-only effect, or another doubt; inactive = no such curve, though single readings can be large; an effect the other way counts as inactive or inconclusive.
# Under each structure: miR-21 reporter, Nrf2 activator, Mito fusion act, Nrf2 block, A549 tox
CC(C)CCCCCCCCCCCCC(=O)NCC(=O)NC1C(C)OC(Nc2ncnc3nc[nH]c23)C(O)C1O (stereo not drawn)
 : /, -2.2%, /, 0.0366µM*, ?
Cc1ccc(C)c(N2CCN(C(=O)C3CCCN(S(=O)(=O)c4c(C)noc4C)C3)CC2)c1 (stereo not drawn)
 : 7.6%, 0.4%, 11.9%, 16.4µM*, 2.8%
CCOc1ccc2nc(NC(=O)C3CCCN(S(=O)(=O)c4c(C)noc4C)C3)sc2c1 (stereo not drawn)
 : -10.6%, -0.2%, 9.0%, 20.6µM*, -25.8%
COc1ccc2nc(NC(=O)C3CCCN(S(=O)(=O)c4c(C)noc4C)C3)sc2c1 (stereo not drawn)
 : 17.0%, 0.1%, -2.4%, -13.7%, -9.1%
Cc1ccc(C)c(N2CCN(C(=O)C3CCN(S(=O)(=O)c4c(C)noc4C)CC3)CC2)c1
 : ?, 2.1%, 4.8%, ?, 0.9%
Cc1noc(C)c1S(=O)(=O)N1CCC(C(=O)N2CCN(c3cccc(C(F)(F)F)c3)CC2)CC1
 : 25.9%, -0.1%, /, 18.4µM*, -15.0%
COC(=O)c1ccccc1NC(=O)c1ccc(F)cc1F
 : /, /, /, 7.8%, -1.3%
CS(=O)(=O)c1ccc(C(=O)OCC(=O)N2CCCC2)cc1[N+](=O)[O-]
 : /, /, /, -10.3%, -5.4%
Cc1cc(C)cc(Nc2nc3ccccc3n3cnnc23)c1
 : -23.6%, 0.3%, /, -7.9%, -9.2%
O=C(Nc1cc(Cl)ccc1-n1cncn1)c1ccc([N+](=O)[O-])o1
 : /, 12.6µM*, 13.3%, 9.9%, -5.3%
CS(=O)(=O)N1CCN(c2ccccc2NC(=O)c2ccc([N+](=O)[O-])o2)CC1
 : 6.8%, 8.91µM*, 0.4%, -14.3%, -0.1%
CCC(=O)N1CCN(c2ccc(NC(=O)c3ccc([N+](=O)[O-])o3)cc2Cl)CC1
 : 12.9%, ?, -2.1%, ?, -8.7%
CCC(=O)N1CCN(c2ccc(Cl)cc2NC(=O)c2ccc([N+](=O)[O-])o2)CC1
 : 12.1%, 11.2µM*, 1.1%, -3.7%, -5.3%
Cc1nc2ccn(Cc3ccccc3)c(=O)c2cc1C(=O)Nc1ccc(F)cc1Cl
 : -3.2%, 0.3%, /, 9.1%, 6.0%
Cc1c(P(=S)(c2ccccc2)c2ccccc2)c2ccccc2n1C(=O)NCc1ccc(F)cc1
 : /, /, /, ?, 2.8%
O=C(OCc1cccc(Cl)c1)c1cc(S(=O)(=O)N2CCCCC2)ccc1N1CCOCC1
 : -1.4%, -1.0%, -2.9%, ?, -9.0%
Cc1ccc(NC(=O)c2cc(S(=O)(=O)N3CCCCC3)ccc2N2CCOCC2)cc1
 : /, -0.9%, /, /, /
O=C(OCCOc1cccc(Cl)c1)c1cc(S(=O)(=O)N2CCCCC2)ccc1N1CCOCC1
 : /, 2.7%, 12.5%, 11.6µM*, -16.8%
Cc1ccc(CNC(=O)c2cc(S(=O)(=O)N3CCCCC3)ccc2N2CCOCC2)cc1
 : /, -0.9%, 6.2%, 20.6µM*, ?
COc1ccc(CNC(=O)C2CCCN(S(=O)(=O)N(C)c3ccc(F)cc3)C2)cc1OC (stereo not drawn)
 : ?, 0.3%, /, 23.1µM*, -2.8%

# Next section, starting with the last five of the part before.
# Under each structure: miR-21 reporter, Nrf2 activator, Mito fusion act, Nrf2 block, A549 tox
O=C(OCc1cccc(Cl)c1)c1cc(S(=O)(=O)N2CCCCC2)ccc1N1CCOCC1
 : -1.4%, -1.0%, -2.9%, ?, -9.0%
Cc1ccc(NC(=O)c2cc(S(=O)(=O)N3CCCCC3)ccc2N2CCOCC2)cc1
 : /, -0.9%, /, /, /
O=C(OCCOc1cccc(Cl)c1)c1cc(S(=O)(=O)N2CCCCC2)ccc1N1CCOCC1
 : /, 2.7%, 12.5%, 11.6µM*, -16.8%
Cc1ccc(CNC(=O)c2cc(S(=O)(=O)N3CCCCC3)ccc2N2CCOCC2)cc1
 : /, -0.9%, 6.2%, 20.6µM*, ?
COc1ccc(CNC(=O)C2CCCN(S(=O)(=O)N(C)c3ccc(F)cc3)C2)cc1OC (stereo not drawn)
 : ?, 0.3%, /, 23.1µM*, -2.8%
COc1ccc(CNC(=O)c2cc(S(=O)(=O)N3CCCCC3)ccc2Cl)cc1OC
 : /, 2.5%, /, 16.4µM*, 0.4%
CCOc1ccc(CNC(=O)C2CCCN(S(=O)(=O)N(C)c3ccc(F)cc3)C2)cc1OC (stereo not drawn)
 : ?, 1.0%, /, ?, -12.9%
CC(C)c1nnc(N2C(=O)c3oc4ccccc4c(=O)c3C2c2cccc(O)c2)s1 (stereo not drawn)
 : -19.8%, 11.1%, /, 8.8%, -4.3%
Cc1cccc(N(C)S(=O)(=O)c2c(C(=O)N3CCCCCC3)c(C)n(C)c2C)c1
 : 0.6%, -0.3%, /, -15.7%, -2.5%
Cc1cc2c(cc1S(=O)(=O)N1CCc3ccccc31)NC(=O)CO2
 : 20.9%, 3.3%, -1.6%, 23.1µM*, ?
CC(C)NC(=O)c1ccc(CSc2nc3ccncc3n2Cc2cccc(F)c2)cc1
 : -5.6%, 3.4%, /, -4.4%, 10.9%
S=C(NCCCc1cnc[nH]1)NCCCN(CCc1ccc(Cl)cc1)c1ccc(Br)cn1
 : /, /, /, 14.6%, 23.9%
Cc1cc(C)n2nc(CC#N)c(C#N)c2n1
 : -3.6%, 0.4%, 0.4%, ?, -2.0%
N#C/C(=C/c1cccs1)c1ccccn1
 : -50.7%, ?, 1.3%, ?, -4.9%
COc1cc(/C=C(\C#N)c2ccccn2)ccc1OCc1ccccc1Cl
 : -4.2%, -0.7%, 6.1%, -18.9%, 3.9%
Cc1cc(C)n2nc(/C(C#N)=C/c3ccccn3)c(C#N)c2n1
 : 3.1%, 7.94µM*, 5.6%, -27.0%, -19.0%
COc1cc(/C=C(\C#N)c2ccccn2)cc(OC)c1O
 : 21.3%, 12.6µM*, -6.2%, 2.5%, 7.8%
N#C/C(=C\c1ccccn1)c1ccccn1
 : 11.6%, 22.4µM*, -1.8%, ?, -2.4%
CCCn1c(=NC(=O)c2cc3ccccc3o2)c(C(=O)OCC)cc2c(=O)n3ccccc3nc21
 : -6.5%, 5.2%, /, -17.2%[9.27 µM], -2.1%
O=C(OCC#CCSc1nnc(-c2cccc3ccccc23)o1)c1sc2ccccc2c1Cl
 : /, /, /, 0.7%, -0.3%
N#Cc1c(NC(=O)c2ccccc2Cl)n(Cc2ccccc2)c2nc3ccccc3nc12
 : -1.2%, 5.2%, -1.8%, 16.4µM*, ?
CCCCn1c(NC(=O)c2ccccc2Cl)c(C#N)c2nc3ccccc3nc21
 : ?, 3.1%, 1.2%, 13µM*, ?
Oc1ccc(/C=N/Nc2nc(-c3cccnc3)nc3ccccc23)c(O)c1
 : -0.7%, -0.6%, 2.7%, 20.6µM*, -13.1%
Nc1ncc(S(=O)(=O)N2CCN(c3ccccc3)CC2)cn1
 : 0.2%, 0.4%, /, /, 12.8%
CCOc1ccc(-c2noc(CSc3nnc(Cc4ccccc4)n3-c3ccc(F)cc3)n2)cc1
 : -0.6%, 0.6%, /, ?, -7.7%

# New compounds follow:
# Under each structure: miR-21 reporter, Nrf2 activator, Mito fusion act, Nrf2 block, A549 tox
COc1ccc(-c2noc(CSc3nnc(Cc4ccccc4)n3-c3cccc(C)c3)n2)cc1OC
 : 1.6%, 4.5%, 11.7%, ?, -7.6%
CCOc1ccc(-c2noc(CSc3nnc(Cc4ccccc4)n3-c3cccc(C)c3)n2)cc1
 : 24.9%, -0.1%, /, 25.9µM*, ?
c1ccc(-c2noc(CSc3nnc(Cc4cccs4)n3-c3ccccc3)n2)cc1
 : -7.7%, 3.7%, 7.5%, ?, -13.6%
Cc1ccc(-c2noc(CSc3nnc(Cc4ccccc4)n3-c3cccc(C)c3)n2)cc1
 : 16.7%, 0.1%, 18.2%, 25.9µM*, ?
Clc1ccc(-c2noc(CSc3nnc(Cc4cccs4)n3-c3ccccc3)n2)cc1
 : 7.3%, -0.1%, 9.4%, 16.4µM*, -7.8%
O=c1[nH]nc(SCCS(=O)(=O)c2ccc(F)cc2)n1-c1ccc2c(c1)OCCO2
 : 21.3%, 12.6µM*, -2.5%, 13.8%, -12.0%
O=c1[nH]nc(SCCS(=O)(=O)c2ccc(F)cc2)n1-c1ccccc1
 : 20.6%, 12.6µM*, -4.9%, -27.3%, -6.5%
CCCn1c(SCC(=O)c2ccc3c(c2)OCCO3)n[nH]c1=O
 : -9.2%, -0.5%, -4.1%, 3.0%, -3.4%
